Patent US8871778B2, “Substituted pyrimidine compounds and their use as SYK inhibitors” (Genosco, priority 2012, dated 2014)

Experiments:
THP-1 cells = assay: SYK-dependent TNF-α release assay (IgG stimulation), ELISA; type: cell-based; details: human IgG-coated plate, 18 hours, SYK-dependent pathway, read-out: TNF-α release inhibition, IgG stimulation (IC50 nM)
full-length human SYK = full-length human SYK (Homo sapiens (Human), UniProt P43405); assay: Inhibition of enzymatic SYK kinase activity (LANCE Ulight-TK peptide, Eu-antibody, 665 nm emission); details: read-out: SYK (IC50 nM); ATP at Km (15 uM)

Compound	IC50 (THP-1 cells)	IC50 (full-length human SYK)
Cc1cn(-c2ccnc(Nc3ccc4c(ccn4C)c3)n2)cc1CN1CC(O)C1 [Compound 52, 1-((4-methyl-1-(2-(1-methyl-1H-indol-5-ylamino)pyrimidin-4-yl)-1H-pyrrol-3-yl)methyl)azetidin-3-ol]	94 nM	–
Cc1nn(-c2ccnc(Nc3ccc4c(c3)c(Cl)cn4C)n2)cc1CN1CC(O)C1 [Compound 144, 1-((1-(2-(3-Chloro-1-methyl-1H-indol-5-ylamino)pyrimidin-4-yl)-3-methyl-1H-pyrazol-4-yl)methyl)azetidin-3-ol]	–	1.8 nM
Cc1nn(-c2ccnc(Nc3ccc4c(cnn4C)c3)n2)cc1CN1CC(O)C1 [Compound 160, 1-((3-Methyl-1-(2-(1-methyl-1H-indazol-5-ylamino)pyrimidin-4-yl)-1H-pyrazol-4-yl)methyl)azetidin-3-ol]	–	15.2 nM
